Antibody variant affinities, Ab-14 light chain, assay B

Target peptide (SARS-CoV-2 spike, HR2 region): PDVDLGDISGINAS

Ab-14 is the parent antibody, in scFv form: VH, then a 15-residue (Gly4Ser)3 linker, then VL. The heavy chain is unchanged in all variants.
VH: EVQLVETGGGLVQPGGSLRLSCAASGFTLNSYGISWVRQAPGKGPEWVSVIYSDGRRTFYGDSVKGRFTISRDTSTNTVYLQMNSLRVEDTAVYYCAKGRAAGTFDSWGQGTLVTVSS
VL: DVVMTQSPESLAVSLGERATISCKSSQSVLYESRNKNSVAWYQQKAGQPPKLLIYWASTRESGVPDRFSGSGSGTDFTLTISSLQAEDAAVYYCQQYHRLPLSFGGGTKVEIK

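Phage display of a naive human antibody library on the peptide gave the parent. The variants were designed computationally from a first round of random CDR variants and then made and measured. Their group label is 14L_GP_Gen (GP: Gaussian process model; Gen: genetic algorithm; a sequence that several methods proposed may carry one label only). AlphaSeq pools MATa yeast showing the antibodies with MATalpha yeast showing the peptide. Mating (16 h, 30 °C) was followed by selection of diploids and sequencing of their barcodes. Read counts were normalised to the haploid input and turned into Kd by a linear fit to BCL2-family pairs of known affinity, for each replicate. The assay was run in six technical replicates.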

Variants are written as CDR1, CDR2 and CDR3 of the light chain (limits as in the source). Parent: KSSQSVLYESRNKNSVA, WASTRES, QQYHRLPLS.
Numbers give log10(Kd / nM), so 0 is 1 nM and 3 is 1 µM. Smaller is tighter.
Averages over replicates are reported, and they cover detected replicates only.
The parent sequence was in this pool as ten entries: three were never detected, three once, and four in most replicates, with averages from 0.34 to 2.37.
As a blank, each scFv also met three strains without target: over all light chain designs, 4% of these pairings were detected, typically at 2.64 and seldom below 1.59. Also given: how often the same scFv was detected with the empty control strains, with their mean in brackets.
The authors averaged sequences with at least three values out of six and counted those with two or fewer as poor binders.
A sequence measured in both rounds can read differently, since the two assays cover different ranges.

CDR-L1,CDR-L2,CDR-L3,log10 Kd (nM) by replicate,mean log10 Kd (nM),signal with controls
KLQQSVLYESRQKNSVA,NASTRES,QQYHRLPLS,0.33 / 0.48 / 0.26 / -0.20 / -0.02 / 0.24,0.18,0/18
KLMQSMLYESRNKNSVA,NASTRES,QQYHRLPLS,0.04 / -0.32 / -0.35 / -0.36 / -0.51 / -0.43,-0.32,0/18
KVSQSFLYESRNKNAVA,EASTRES,QQYHRLPLS,-0.31 / -0.52 / -0.52 / -0.52 / -0.52 / -0.29,-0.45,2/18 (3.10)
KFSQSWLYESRNSNSVA,NASQRES,QQYHRLPLS,0.00 / -0.21 / -0.35 / -0.21 / -0.11 / -0.12,-0.17,2/18 (2.80)
KLSPSVLYESRNKNSVA,DASTRES,QQYHRLPLS,-0.46 / -0.75 / -0.75 / -1.10 / -0.65 / -0.47,-0.70,0/18
KMPQSELYESRNKNSVA,NASQRES,QQYHRLPLS,0.16 / -0.18 / -0.02 / -0.16 / 0.21 / -0.08,-0.01,0/18
KLSQSVLYESRNKNNVA,HASQRES,QQYHRLPLS,0.12 / -0.28 / -0.14 / -0.26 / -0.10 / 0.06,-0.10,1/18 (2.60)
KSSQSVLYESRNKNSVA,EASTREQ,QQYHRLPLS,0.34 / 0.80 / 0.50 / 0.71 / 0.47 / 1.01,0.64,0/18
KLSQSWLYESRNKNSVA,NASTREV,QQYHRLPLS,0.06 / 0.04 / -0.20 / -0.20 / -0.14 / 0.10,-0.06,1/18 (2.45)
KLSQSHLYESRNKNSVA,EASQRES,QQYHRLPLS,0.15 / 0.00 / 0.13 / -0.11 / -0.01 / 0.09,0.04,1/18 (3.34)
KFEQSQLYESRNKNSVA,NASTRED,QQYHRLPLS,-0.17 / -0.37 / -0.28 / -0.56 / -0.42 / -0.21,-0.33,1/18 (2.31)
KLSQSTLYESRNKNAVA,NASTRES,QQYHRLPLS,-0.38 / -0.53 / -0.51 / -0.55 / -0.61 / -0.26,-0.47,0/18
KVSQSVLYQSRNKNSVA,DASTRES,QQYHRLPLS,0.17 / -0.10 / 0.16 / -0.20 / 0.18 / 0.21,0.07,0/18
KFSQSVLYESRNKNSVA,GASTREQ,QQYHRLPLS,-0.28 / -0.44 / -0.43 / -0.45 / -0.64 / -0.22,-0.41,1/18 (3.37)
KLQQSHLYESRNKNSVA,NASQRLS,QQYHRLPLS,0.33 / 0.28 / 0.57 / 0.42 / 0.40 / 0.28,0.38,1/18 (1.65)
KMSQSYLYESRNKNSVA,EASTRES,QQYHRLPLS,0.21 / 0.34 / 0.14 / -0.06 / 0.21 / 0.44,0.21,0/18
KLSQSVLYEERNKNSVA,EASTRLS,QQYHRLPLS,0.46 / 0.56 / 0.35 / 0.14 / 0.30 / 0.63,0.41,0/18
KFSQSFLYESRNKNSVA,NASQRES,QQYHRLPLS,-0.02 / -0.29 / -0.45 / -0.05 / 0.20 / -0.36,-0.16,0/18
KFSQSVLYESRNKNSVA,EASTRED,QQYHRLPLS,0.02 / 0.07 / -0.29 / -0.03 / -0.07 / 0.10,-0.04,0/18
KFEQSVLYESRNKNSVA,GASTRES,QQYHRLPLS,-0.01 / 0.09 / -0.18 / -0.43 / -0.33 / -0.27,-0.19,0/18
KLSQSVLYESRNFNSVA,NASTRCS,QQYHRLPLS,0.53 / 0.45 / 0.04 / 0.40 / 0.24 / 0.37,0.34,1/18 (1.83)
KYSQSVLYESRNKNSVA,GASTRES,QQYHRLPLS,-0.28 / -0.12 / -0.19 / -0.44 / -0.24 / -0.10,-0.23,0/18
KVSQSVMMESRNKNSVA,EASTRES,QQYHRLPLS,0.79 / 0.37 / 0.40 / 0.19 / 0.59 / 0.49,0.47,0/18
KLSQSMLYESRVKNSVA,NASTRES,QQYHRLPLS,0.03 / -0.24 / -0.41 / -0.26 / -0.31 / -0.14,-0.22,1/18 (1.88)
HLSQSVLYESRNKNSVA,EASTRCS,QQYHRLPLS,0.04 / 0.35 / 0.00 / -0.04 / -0.10 / 0.34,0.10,2/18 (3.03)
KLSQSVLYESRMSNSVA,NASTRES,QQYHRLPLS,0.33 / 0.11 / 0.07 / 0.21 / 0.18 / 0.39,0.21,4/18 (2.76)
KLSQSYLYESRNKNSVA,NASTRES,QQYHRLPLS,0.75 / 0.04 / 0.61 / 0.69 / 0.20 / 1.17,0.57,0/18
KVSQSGLYESRNKQSVA,NASTRES,QQYHRLPLS,-0.26 / -0.26 / -0.36 / -0.31 / -0.10 / -0.15,-0.24,0/18
KLSQSVLYESRNKNSVA,EATTRES,QQYHRLPLS,-0.08 / -0.39 / -0.42 / -0.42 / -0.47 / -0.29,-0.35,0/18
KLQQSVPYESRNKNSVA,NASTRMS,QQYHRLPLS,0.22 / 0.29 / 0.13 / 0.10 / 0.30 / 0.39,0.24,2/18 (2.75)
KLQQSELYESRNKNSVA,NASYRMS,QQYHRLPLS,0.05 / -0.11 / -0.12 / -0.27 / -0.07 / -0.03,-0.09,0/18
KVSQSMLYESRNKNSVA,NASTRES,QQYHRLPLM,-0.06 / -0.11 / -0.33 / -0.25 / -0.39 / -0.23,-0.23,2/18 (2.74)
KVSQSFLYEERNKNSVA,NASQRES,QQYHRLPLS,-0.02 / -0.12 / -0.15 / -0.29 / -0.20 / 0.06,-0.12,0/18
KLSQSHLYESRNKNSVA,DASTRCS,QQYHRLPLS,0.19 / -0.10 / 0.09 / -0.10 / 0.07 / 0.24,0.06,1/18 (2.83)
KVQQSELYESRNKNSVA,NASTRCS,QQYHRLPLS,0.34 / 0.43 / 0.50 / -0.30 / 0.45 / 1.09,0.42,1/18 (1.58)
KLSQSVLYESRNWNSVA,DASTRES,QQYHRLPLS,0.23 / 0.58 / 0.35 / 0.22 / 0.14 / 0.34,0.31,1/18 (2.83)
KVQQSVLYESRNKNSVA,EASTRLS,QQYHRLPLS,-0.18 / -0.22 / -0.24 / -0.27 / -0.25 / -0.22,-0.23,1/18 (3.10)
KLSQSVEYESRNKNSVA,EASTRES,QQYHRLPLS,0.05 / -0.31 / 0.08 / -0.32 / -0.65 / -0.11,-0.21,4/18 (2.43)
KLLQSQLYESRNKNSVA,NASQRES,QQYHRLPLS,-0.45 / -0.31 / -0.25 / -0.43 / -0.54 / -0.43,-0.40,1/18 (2.64)
KVPQSYLYESRNKNSVA,NASTRES,QQYHRLPLS,0.06 / 0.46 / 0.32 / 0.23 / 0.00 / 0.33,0.23,0/18

Extract of 5 entries:

CDR-L1	CDR-L2	CDR-L3	log10 Kd (nM) by replicate	mean log10 Kd (nM)	signal with controls
KLLQSQLYESRNKNSVA	NASQRES	QQYHRLPLS	-0.45 / -0.31 / -0.25 / -0.43 / -0.54 / -0.43	-0.40	1/18 (2.64)
KVSQSFLYESRNKNAVA	EASTRES	QQYHRLPLS	-0.31 / -0.52 / -0.52 / -0.52 / -0.52 / -0.29	-0.45	2/18 (3.10)
KMSQSYLYESRNKNSVA	EASTRES	QQYHRLPLS	0.21 / 0.34 / 0.14 / -0.06 / 0.21 / 0.44	0.21	0/18
KFSQSWLYESRNSNSVA	NASQRES	QQYHRLPLS	0.00 / -0.21 / -0.35 / -0.21 / -0.11 / -0.12	-0.17	2/18 (2.80)
KVSQSVMMESRNKNSVA	EASTRES	QQYHRLPLS	0.79 / 0.37 / 0.40 / 0.19 / 0.59 / 0.49	0.47	0/18

Data: MIT Lincoln Laboratory AlphaSeq set, Li et al. 2023, doi:10.1038/s41467-023-39022-2, as distributed in FLAb.